The values below come from PubChem BioAssay AID488837 (National Center for Advancing Translational Sciences (NCATS), 2010).

Sequences of proteins named here, by UniProt entry; tags and fusion partners are left off. A change or cut given only in a name is not applied to a line headed by its entry.
UniProt O00167: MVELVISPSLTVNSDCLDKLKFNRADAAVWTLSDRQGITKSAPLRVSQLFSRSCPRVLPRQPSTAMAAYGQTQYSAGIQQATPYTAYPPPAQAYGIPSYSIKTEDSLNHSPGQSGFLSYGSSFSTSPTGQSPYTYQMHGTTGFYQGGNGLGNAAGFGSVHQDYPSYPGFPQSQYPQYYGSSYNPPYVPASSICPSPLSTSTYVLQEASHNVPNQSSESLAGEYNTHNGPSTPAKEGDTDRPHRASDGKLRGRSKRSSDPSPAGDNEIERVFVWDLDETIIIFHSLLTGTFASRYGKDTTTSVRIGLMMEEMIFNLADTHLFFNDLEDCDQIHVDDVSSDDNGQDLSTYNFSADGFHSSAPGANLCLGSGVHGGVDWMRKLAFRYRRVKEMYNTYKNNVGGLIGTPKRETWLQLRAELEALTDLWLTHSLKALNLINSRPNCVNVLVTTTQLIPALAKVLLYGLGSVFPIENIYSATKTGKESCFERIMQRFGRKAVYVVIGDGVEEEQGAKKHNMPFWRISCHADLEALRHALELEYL

This is a selection; strong and weak results do not stand in their true shares. Calls of active or inactive are those of the source. The call rests on the fitted dose curve; in most records, active means well fitted inhibition curve with a large enough effect; inconclusive means small, poorly fitted or top-dose-only effect, or effect the other way; inactive means flat fitted curve, though single readings scatter.
On the % scale 0 is the no-effect control and ±100 the full control effect.

This test addresses Protein phosphatase EYA2 (Homo sapiens) (UniProt O00167). The experiment in a line: qHTS Assay for Inhibitors of the Phosphatase Activity of Eya2. The settings on record: recombinant Eya2, OMFP fluorescence dephosphorylation (OMFP is methylfluorescein phosphate); at 76.9 µM (top of the series) unless noted. The source says:
The Eya family of proteins are essential co-activators of the Six1 transcription factor. Six1 is a developmental gene that is abnormally re-expressed in a large percentage of breast cancers. This over-expression plays a causal role in the initiation and metastatic development of breast cancers. The Eya family of proteins was also found to contain a unique HAD phosphatase domain with protein tyrosine phosphatase activity which can potentially play a role in Six1-mediated breast tumorigenesis. […] We have developed and optimized a 1536 well fluorescence-based HTS assay targeting the phosphatase activity of Eya2. Inhibitors found against Eya2 could serve as potential therapeutic tools to inhibit Six1-mediated breast tumorigenesis and to increase the efficiency of radiation and certain chemo therapy. These inhibitors could also be used as chemical probes to study the function of Eya2's phosphatase activity and its role in Six1-mediated breast tumorigenesis.
The Eya2 enzyme was kindly provided by the laboratory of Dr. Rui Zhao. The 3-O-methyl-fluorescein phosphate (OMFP) substrate and all buffer reagents were purchased from Sigma Aldrich. qHTS Assay Setup: 1. Buffer- 50 mM HEPES pH 7.5, 50 mM NaCl, 5 uM MgCl2, 0.05% BSA, 1 mM DTT. 2. OMFP Stock- 10 mM solution prepared in 100% DMSO and stored in single use aliquots at -20C. Assay Procedure- 1. Dispense 1.5 ul per well of Eya2 at 0.2 uM in black medium binding 1536 well Greiner plate 2. Transfer 23 nl of compound and control compound (EGTA) to plate 3. Incubate at ambient for 10 minutes 4. Dispense 1.5 ul per well of OMFP at 50 uM 5. Incubate at ambient for 10 minutes 6. Read on ViewLux using Excitation = 485 nm, Emission = 525 nm
As to `O=C(OC1CN2CCC1CC2)C12CC3CC(CC(C3)C1)C2` (centres undefined), the activity, negative = inhibition is inactive: -0.661%.
To `Cc1cc(=O)[nH]c(N[N+](=O)[O-])n1` belongs inactive: 5.71%; to `Cc1c2c(nc3ccccc13)SC(C(Cl)Cl)C2` (centres undefined), inactive: -9.27%; to `COc1ccc2nc(NP(=O)(c3ccccc3)c3ccccc3)sc2c1`, inactive: 8.96%.
To `COc1cc(I)ccc1[As](=O)(O)O` belongs inactive: 14.6%; to `COc1ccc(N/C(=N/P(=O)(N2CCOCC2)N2CCOCC2)N2CCOCC2)cc1`, inactive: 10.9%.
To `C[As](=O)(O)c1cccc(C(=O)O)c1` belongs inactive: 3.1%; to `COc1cc(C(=O)NCC2(N3CCOCC3)CCCCC2)ccc1OCC(C)C`, inactive: -4.28%.
In the case of `Cc1ccc2nc3c(c(C)c2c1)CC(C(Cl)Cl)S3` (centres undefined), the activity, negative = inhibition was inactive: -3.4%.
To `Cc1ccc(OP(=O)(Nc2ccc([N+](=O)[O-])cn2)Oc2ccc(C)cc2)cc1` belongs inactive: 11.7%; to `CC(C)c1ccc(OP(=O)(Nc2ccccn2)Oc2ccccc2F)cc1` (centres undefined), inactive: -13.6%; to `ClCCSc1nnc(-c2cccnc2)o1`, inactive: -1.53%.
To `CCN(CC)C(=S)SC(NC=O)C(Cl)(Cl)Cl` (centres undefined) belongs inactive: 3.55%.
Next, `CC(C)NC(=O)NP(=O)(Oc1ccccc1)Oc1ccccc1`: inactive: -1.03%; `O=[N+]([O-])c1cc([N+](=O)[O-])c(-c2ccn[nH]2)s1`: inactive: 4.77%; `CCOC(=O)Nc1ccc([As](=O)(O)O)c(O)c1`: inactive: -22.5%.
`CCCCOc1ccc(C(=O)NCC2(N3CCCCC3)CCCCC2)cc1OC`: the activity, negative = inhibition is inactive: -0.293%.
To `Cc1cc(SC(NC(=O)c2ccccc2)C(Cl)(Cl)Cl)nc(C(C)C)n1` (centres undefined) belongs inactive: -12%.
To `CCOC(=O)Nc1cccc([As](=O)(O)O)c1` belongs inactive: -0.644%; to `O=[N+]([O-])c1ccc(Nc2ccc(Oc3ccc([N+](=O)[O-])cc3[N+](=O)[O-])cc2)c([N+](=O)[O-])c1`, inactive: -15.4%; to `Cc1cc(SC(NC=O)C(Cl)(Cl)Cl)ncn1` (centres undefined), inactive: 5.39%.
Next, `O=P(Nc1ccccn1)(c1cccc2ccccc12)c1cccc2ccccc12`: inactive: -2.31%; `COP1(=S)c2c(C)nn(CCC#N)c2N=C(c2ccc(F)cc2)N1C` (centres undefined): inactive: -3.41%; `O=C(COc1ccccc1)OC1CN2CCC1CC2` (centres undefined): inactive: 21.8%.
Regarding `O=C(Nc1ccncc1[N+](=O)[O-])c1ccc([N+](=O)[O-])cc1[N+](=O)[O-]`, the activity, negative = inhibition was inactive: 13.9%.
Next, `CCOC(=O)c1ccc(NC(=O)C(C)(CCl)SC)cc1` (centres undefined): inactive: -0.135%.
To `O=C(OC1CN2CCC1CC2)c1cccc([N+](=O)[O-])c1` (centres undefined) belongs inactive: 3.32%.
To `CCC(C)N(CC(C)C)C(=S)SC(NC(C)=O)C(Cl)(Cl)Cl` (centres undefined) belongs inactive: -9.54%; to `CN(CCCl)Cc1cc(Cl)c(NC2=NCCN2)c(Cl)c1`, inactive: 1.87%; to `CCOP(=O)(Nc1ccc(C)cn1)OCC`, inactive: 7.94%.
Consider `CCC1=CC2Cc3nc4ccc(Cl)cc4c(N)c3C(C1)C2` (centres undefined), for which the activity, negative = inhibition was inactive: 6.14%.
Next, `O=P1(Nc2ccccn2)COc2ccccc2OC1`: inactive: 1.42%; `CCOP(=O)(NC(=NC(C)c1ccccc1)NC(C)c1ccccc1)OCC` (centres undefined): inactive: 16.1%.
Next, `Clc1n[nH]nc1-c1nn[nH][15n]1`: inactive: 11.7%; `CC(C)(C)C(=O)NC(Sc1ncccn1)C(Cl)(Cl)Cl` (centres undefined): inactive: 5.3%.
To `COc1ccccc1CNC(=O)COC(=O)C(O)(c1ccccc1)c1ccccc1` belongs inactive: -14.6%; to `O=[As](O)(c1ccccc1Br)c1ccccc1Br`, inactive: 0.565%.
`CN(C(=O)Cc1ccc(Cl)c(Cl)c1)[C@@H]1CCCC[C@H]1N1CCCC1`: the activity, negative = inhibition was inactive: -5.37%.
As for `CC(C)/C=N\N=C(\N)N[N+](=O)[O-]`, the activity, negative = inhibition was inactive: 0.231%.
Turning to `Cc1nn(-c2ccccc2)c2c1P(=O)(N1CCOCC1)N(C)C(c1ccccc1)=N2` (centres undefined), the activity, negative = inhibition is inactive: -31.1%.
Next, `Cc1ccc(C(=O)OC2CN3CCC2CC3)cc1` (centres undefined): inactive: -6.69%; `CC1CCC(C(C)C)C(OP(=O)(Nc2ccccn2)c2ccccc2)C1` (centres undefined): inactive: -0.711%; `O=C(/C=C/c1ccccc1)OC1CN2CCC1CC2` (centres undefined): inactive: -1.86%.
Next, `CN(C)C1(CNC(=O)c2ccc(S(C)(=O)=O)cc2)CCCCC1`: inactive: -3.74%; `O=P1(Nc2ncccn2)COc2ccccc2OC1`: inactive: 30.4%; `NS(=O)(=O)c1cccc(NC(=O)COC(=O)C(O)(c2ccccc2)c2ccccc2)c1`: inactive: -1.85%.
With `O=P1(Nc2ccc(Br)cn2)COc2ccccc2OC1`, the activity, negative = inhibition was inactive: 7.39%.
Take `Cc1ccc(OCC(=O)OC2CN3CCC2CC3)cc1` (centres undefined): the activity, negative = inhibition was inactive: -5.6%.
To `O=[As](O)(c1cccs1)c1cccs1` belongs inactive: 2.54%.
